The target in this assay is High affinity 3',5'-cyclic-AMP phosphodiesterase 7A (Homo sapiens, UniProt Q13946). Briefly: Inhibition of human Phosphodiesterase 7A1 expressed in baculovirus infected Sf9 cells.

By UniProt entry, the sequences of proteins in these tests, tags left out. Where a name states a change or a piece, a line headed by the entry shows the natural chain unless it says otherwise.
UniProt Q13946: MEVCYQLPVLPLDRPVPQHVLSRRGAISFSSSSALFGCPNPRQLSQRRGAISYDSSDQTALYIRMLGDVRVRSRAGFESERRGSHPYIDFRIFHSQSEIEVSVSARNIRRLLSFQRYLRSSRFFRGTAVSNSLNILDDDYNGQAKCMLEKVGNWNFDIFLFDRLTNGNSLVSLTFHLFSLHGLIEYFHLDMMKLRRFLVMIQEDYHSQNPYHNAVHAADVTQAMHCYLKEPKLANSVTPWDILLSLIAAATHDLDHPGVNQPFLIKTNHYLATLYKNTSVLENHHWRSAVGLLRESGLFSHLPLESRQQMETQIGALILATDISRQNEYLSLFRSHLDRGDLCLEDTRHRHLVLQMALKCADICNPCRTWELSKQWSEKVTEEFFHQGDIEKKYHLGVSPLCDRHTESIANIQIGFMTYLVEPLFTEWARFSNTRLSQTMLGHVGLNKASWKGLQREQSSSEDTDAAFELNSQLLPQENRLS

For orientation: IC50 means the concentration at which inhibition is half-maximal. A low value points to inhibition by little substance.

The compound `CC(=O)Nc1ccc(-c2nn(C)/c(=N/C3CCCCC3)s2)cc1` came in with an IC50 of 60 nM.

Source of the values: ChEMBL document CHEMBL1137197, “Discovery of thiadiazoles as a novel structural class of potent and selective PDE7 inhibitors. Part 1: design, synthesis and structure-activity relationship studies” (Bioorg Med Chem Lett, 2004).
